According to patent US9260534B2, “Site-directed PEG-modified exendin-4 analogs and uses thereof” (priority 2010, dated 2016):

Tested on: GLP-1 receptor
Test: Evaluation of agonistic activity on GLP-1 receptor (CRE-luciferase reporter in HEK293 cells)
Format: cell-based
Settings: HEK293 cells stably expressing CRE-luciferase reporter system; cellular level
Excerpt: GLP-1 receptor is a Gs-coupled GPCR. CRE-luciferase reporter system was stably expressed in human embryonic kidney epithelial cell line HEK293 used for evaluation. Therefore, once the receptor was activated, the enhancement of intracellular concentration of the second messenger cAMP through Gs signal pathway would initiate the expression of the luciferase gene in the reporter system. The ability of the test compounds to stimulate and activate GLP-1 receptor was reflected by the detected expression level of the luciferase reporter gene.

## [Cys^37(mPEG5000-MAL)]Exendin-4 [Compound 6]
  EC50: 1.76 nM
